Measurements: patent US10233186B2, “Inhibitors of activin receptor-like kinase” (BLUEPRINT MEDICINES CORPORATION, priority 2016, dated 2019)

Amino acid sequences for entries named in this document (tags omitted). Residues count along the entry.
UniProt Q04771, 21-509 R206H limits assumed: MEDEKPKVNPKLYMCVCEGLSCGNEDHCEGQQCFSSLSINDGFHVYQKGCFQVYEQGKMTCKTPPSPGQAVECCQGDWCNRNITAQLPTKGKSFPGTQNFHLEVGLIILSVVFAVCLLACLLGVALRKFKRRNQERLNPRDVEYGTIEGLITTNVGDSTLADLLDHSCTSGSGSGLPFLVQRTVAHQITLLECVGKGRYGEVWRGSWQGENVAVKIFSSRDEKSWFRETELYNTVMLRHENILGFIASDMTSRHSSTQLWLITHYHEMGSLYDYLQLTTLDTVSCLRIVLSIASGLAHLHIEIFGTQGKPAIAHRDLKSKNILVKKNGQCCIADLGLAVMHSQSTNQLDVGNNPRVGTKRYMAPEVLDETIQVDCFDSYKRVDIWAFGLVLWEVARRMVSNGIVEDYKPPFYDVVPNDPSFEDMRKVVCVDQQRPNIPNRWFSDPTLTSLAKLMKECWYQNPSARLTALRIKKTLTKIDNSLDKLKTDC

Legend:
[1] = target: ALK2 R206H (GST-tagged mutant ALK2) (Homo sapiens, UniProt Q04771, R206H); test: ALK binding assay (LANTHASCREEN TR-FRET competitive binding, displacement of Kinase Tracer 178); settings: read-out: Binding Assay (IC50)
[2] = target: human ALK2 R206H (Homo sapiens, UniProt Q04771, R206H); test: Cell-based ALK2-R206H cell activity assay (Smad1-Ser463/Ser465 phosphorylation by AlphaLISA in HEK293-ALK2-R206H cells); settings: read-out: Cell Line (Cell Assay IC50)

Row | IC50 [1] | IC50 [2] | SMILES
1 | < 10 nM | > 500 nM | O=C(OC(CO)CO)N1CCN(c2ccnn3cc(-c4ccc([C@@H]5CCCNC5)cc4)cc23)CC1
2 | < 10 nM | < 100 nM | CC(C)N1CC[C@H](c2ccc(-c3cc4c(N5CCN(C(=O)[C@H]6C[C@@H]6C#N)CC5)ccnn4c3)cc2)C1
3 | < 10 nM | 100 to 500 nM | O=C(C1CC1)N1CCN(c2ccnn3cc(-c4ccc([C@@H]5CCCN5)nc4)cc23)CC1
4 | < 10 nM | < 100 nM | CO[C@]1(c2ccc(-c3cc4c(N5CCN(C(=O)OC6COC6)CC5)ccnn4c3)nc2)CCCN(C(C)C)C1

Row | SMILES | IC50 [1] | IC50 [2]
5 | O=C(C1CC1)N1CCN(c2ccnn3cc(-c4ccc(C56CCN(CC5)C6)cc4)cc23)CC1 | < 10 nM | 100 to 500 nM
6 | CC(C)N1CCC(c2ccc(-c3cc4c(N5CCN(C(=O)NCCF)CC5)ccnn4c3)cc2)CC1 | < 10 nM | –
7 | COC(=O)C1(c2ccc(-c3cc4c(N5CCN(C(=O)OC6COC6)CC5)ccnn4c3)cc2)CCNCC1 | < 10 nM | 100 to 500 nM
